Molecular target: GIPR variants (groups)
Conditions: remaining 24 LoF variants

Substance: glucose-dependent insulinotropic polypeptide [GIP]
- Affinity (Kd) for GIP: high affinity (Kd) for GIP was retained

From PMC11272584 (Nature Metabolism, 2024)
